The subject of experiment [1] is MDAMB-468-luc cells. In words: Cell proliferation inhibition activity (luciferase activity, survival rate), MDAMB-468-luc. The format is cell-based, human. The settings on record: HER2-negative MDAMB-468-luc cells. As to the method: (§1) 3T3/HER2-luc cells and MDAMB-468-luc cells each in an amount of 1×10^4 were individually seeded into a 24-well plate together with 1 ml of a medium. […] After 4 days, the luciferase activity was measured with a plate reader to assess the survival of HER2-negative cells.

Experiment [2] deals with 3T3/HER2-luc cells. The experiment is described as follows: Cell proliferation inhibition activity (luciferase activity, survival rate), 3T3/HER2-luc. The format is cell-based, mouse. The following applies: for antiproliferative effect: HER2-positive 3T3/HER2-luc cells, 4 days, no light. As to the method:
as §1

In experiment [3] the test system is MDA-MB-468-luc cells. The experiment is described as follows: In vitro NIR-PIT in mixed culture of 3T3/HER2 and MDA-MB-468-luc cells, luciferase activity. The experiment is classed as cell-based, human. The settings on record: for amount of luminescence (RLU value) of luciferase activity: with NIR-PIT (690 nm, 4 J cm^2), 4 days after treatment. How it is done: 3T3/HER2 cells and MDA-MB-468-luc cells, each in an amount of 5×10^4, were mixed and seeded into a 12-well plate for mixed culture. […] Subsequently, the cells were washed with PBS twice and irradiated with near-infrared light (4 J cm^2) by using an LED with an emission wavelength of 690 nm. After 4 days from treatment, the luciferase activity of the cells were measured, and the effect of NIR-PIT was evaluated. The cells were washed with PBS before the measurement of luciferase activity, and D-luciferin (150 μg/ml, 200 μl) was added to the plate, followed by quantitatively measuring the luminescence intensity of the luciferase with a plate reader.

Experiment [4] has as its system 3T3/HER2 cells and MDAMB-468-luc cells mixed tumors. In words: In vivo NIR-PIT, mixed 3T3/HER2 and MDAMB-468-luc subcutaneous tumors. Set-up: species or system nude mice. The settings on record: for luciferase activity of tumors (RLU value): T-DM1-IR700 3.6 μg/g i.v. As to the method:
3T3/HER2 cells (5×10^6) and MDAMB-468-luc cells (1×10^7) were mixed in 150 μl of PBS, and transplanted subcutaneously into both dorsal buttocks of 8- to 10-week-old nude mice. The therapeutic effect of NIR-PIT was quantitatively evaluated by measuring the estimated tumor volume and the luciferase activity of tumors. The major axis and short axis of the tumors were measured, and the estimated tumor volume was calculated using “major axis×short axis^2×½.” Mice with an estimated tumor volume greater than 100 mm^3 were used for the experiment. The luciferase activity of tumors was measured by intraperitoneally administering D-luciferin (7.5 mg/mL, 200 ul), using an IVIS (registered trademark) imaging system. The unit of luminescence to be measured was radiance, and analysis was performed with Living Image Software (registered trademark). […] After four days from subcutaneous implantation of cells, NIR-PIT was performed using a laser (15 J cm^2 after one day from i.v., 30 J cm^2 after 2 days from i.v.). After treatment, measurement was continued until the major axis of the tumors exceeded 20 mm.

For experiment [5], the system named is MDA-MB-468. The experiment is described as follows: Binding properties of T-DM1-IR700, flow cytometry fluorescence, HER2-negative MDA-MB-468 cells. Details: species or system human. The following applies: MDA-MB-468 (HER2-negative), incubated 37° C. 6 hours. Background: A flow cytometer gives signals particle by particle.

Turning to Tra-IR700 [reference compound], the antiproliferative effect result in experiment [1] (4 days) was “did not exhibit an antiproliferative effect”; in experiment [2], “mild antiproliferative effect”. The “amount of luminescence (RLU value) of luciferase activity” value in experiment [3] is reported as “not decreased”.

Consider “T-DM1 (Trastuzumab+N2′-Deacetyl-N2′-Maytansine)-IR700 [T-DM1-IR700]”, for which the antiproliferative effect entry in experiment [1] (high concentration, 4 days) is “antiproliferative effect was also observed”; in experiment [1] (normal concentrations at which side effects do not occur), “no antiproliferative effect”; in experiment [2], “exhibited an antiproliferative effect”. Moreover, the “difference between group treated with NIR-PIT together with T-DM1-IR700 and group treated with T-DM1-IR700 alone” value in experiment [4] (FIG. 7, 3.6 μg/g i.v.) is on record as “significant difference”. Besides, the figures for the “luciferase activity of tumors (RLU value)” value in experiment [4] (left-side tumors without irradiation) and in experiment [4] (right-side tumors irradiated with a laser) were “not decreased” and “decreased”, respectively. Besides, the tumor volume entry in experiment [4] (right side (irradiated) vs left side (not irradiated), T-DM1-IR700 i.v.) is reported as “smaller than that on the left side”. In experiment [2] (3T3/HER2-luc vs MDAMB-468-luc), the “difference in IC50 between the two types of cells” value is recorded as 50 fold. The luciferase activity result in experiment [3] (conjugate alone, without NIR-PIT, 1, 5 or 10 μg/mL) was “dose-dependent decrease”. In addition, in experiment [3], the “amount of luminescence (RLU value) of luciferase activity” value is “significantly decreased”. The “fluorescence intensity by flow cytometry” value in experiment [5] is “did not show enhanced fluorescence”.

(Values after patent publication US20220257765A1, “TARGET-SPECIFIC CONJUGATE AND USE THEREFOR” (priority 2019, published 2022).)
